## Apparent affinities of Ab-95 variants for a coronavirus HR2 peptide

Target peptide (SARS-CoV-2 spike, HR2 region): PDVDLGDISGINAS

Each scFv is VH, a 15-residue (Gly4Ser)3 linker, VL, as in the parent Ab-95, and differs from it in the CDRs of the light chain only.
VH: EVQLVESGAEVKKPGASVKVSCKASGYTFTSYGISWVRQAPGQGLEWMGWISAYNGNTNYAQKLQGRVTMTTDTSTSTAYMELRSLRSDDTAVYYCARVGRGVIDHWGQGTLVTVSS
VL: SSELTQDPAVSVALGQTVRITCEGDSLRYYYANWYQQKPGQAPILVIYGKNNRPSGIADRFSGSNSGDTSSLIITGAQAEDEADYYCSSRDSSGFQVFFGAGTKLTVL

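The parent was found by panning a naive human phage display library on the peptide. The library (AAYL52) carries one to three amino acid substitutions per variant, with no insertions or deletions. In AlphaSeq, yeast of one mating type display the scFv and yeast of the other type display the target. Binding brings cells together so that they mate, and sequencing counts the barcode pairs among the diploids. The ratio of observed to expected reads was calibrated, replicate by replicate, on BCL2-family standards whose Kd was known from biolayer interferometry. The assay was run in three technical replicates.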

Sequences are complete VL domains.
The read-out is the apparent dissociation constant on a log10 scale (nM): the lower, the stronger.
A mean of the replicates is given; it leaves out those without a signal.
Where no diploid with the target was found in any replicate, the entry reads "nd": below detection, most likely a poor binder, though not proof of it.
As a blank, each scFv also met three strains without target: over library AAYL52, 28% of these pairings were detected, typically at 3.91 and seldom below 2.90. For each scFv, signals with the empty controls are counted beside the result.
For reference, the parent read 2.31 as the reference entry and 2.25 as a member of this library.

| mean log10 Kd (nM) | detected | control signals | VL |
|---|---|---|---|
| 2.33 | 3/3 | 4/9 | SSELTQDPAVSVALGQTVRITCESDSLPYYYYNWYQQKPGQAPILVIYGKNNRPSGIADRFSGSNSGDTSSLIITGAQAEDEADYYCSSRDSSGFQVFFGAGTKLTVL |
| 2.51 | 2/3 | 1/9 | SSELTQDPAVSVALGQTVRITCCGDSLRYYYANWYQQKPGQAPILVIYGKNNRPSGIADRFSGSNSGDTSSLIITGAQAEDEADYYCSSRDSSWFQVFFGAGTKLTVL |
| 3.26 | 3/3 | 5/9 | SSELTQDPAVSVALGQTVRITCEGLSLRYYYANWYQQKPGQAPILVIYGGNNRYSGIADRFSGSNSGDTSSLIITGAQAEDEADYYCSSRDSSGFQVFFGAGTKLTVL |
| 2.39 | 3/3 | 2/9 | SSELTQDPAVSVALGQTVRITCEGDSLRYDYANWYQQKPGQAPILVIYGKTNRPSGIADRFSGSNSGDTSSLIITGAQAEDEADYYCSSRDSSGFQVFFGAGTKLTVL |
| 3.72 | 1/3 | 2/9 | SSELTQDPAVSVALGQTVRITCEGDSLRYYYANWYQQKPGQAPILVIYGENNRPSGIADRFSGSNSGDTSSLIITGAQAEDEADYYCSSIDSSGFQYFFGAGTKLTVL |
| nd | 0/3 | 0/9 | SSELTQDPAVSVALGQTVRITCEGDSLRYYYANWYQQKPGQAPILVIYHKNNVPSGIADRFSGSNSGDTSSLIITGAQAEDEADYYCSSRDCSGFQVFFGAGTKLTVL |
| 3.67 | 2/3 | 3/9 | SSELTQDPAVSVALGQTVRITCEGDSLVYYYANWYQQKPGQAPILVIYGKYNRPSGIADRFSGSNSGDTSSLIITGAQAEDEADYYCSSRYSSGFQVFFGAGTKLTVL |
| 2.67 | 3/3 | 8/9 | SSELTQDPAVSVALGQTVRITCEGDSLRYYYANWYQQKPGQAPILVIYGKNQIPSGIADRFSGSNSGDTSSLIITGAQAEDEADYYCSSRDSSRFQVFFGAGTKLTVL |
| 4.55 | 1/3 | 1/9 | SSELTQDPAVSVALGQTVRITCEGNSLRYYYYNWYQQKPGQAPILVIYFKNNRPSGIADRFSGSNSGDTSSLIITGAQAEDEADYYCSSRDSSGFQVFFGAGTKLTVL |
| 2.81 | 3/3 | 4/9 | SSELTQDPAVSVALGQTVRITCEGDSLWDYYANWYQQKPGQAPILVIYGINNRPSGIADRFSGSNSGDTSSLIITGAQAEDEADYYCSSRDSSGFQVFFGAGTKLTVL |
| 3.86 | 2/3 | 4/9 | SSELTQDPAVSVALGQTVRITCECDSLRYYYANWYQQKPGQAPILVIYGKNNRPSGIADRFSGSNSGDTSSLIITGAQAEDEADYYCSSRDSSGSMVFFGAGTKLTVL |
| 3.88 | 2/3 | 3/9 | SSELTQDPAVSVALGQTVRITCEGDSLRYYYANWYQQKPGQAPILVIYGKNGRPSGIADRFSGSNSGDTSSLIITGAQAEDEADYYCSSFDSSGFQVIFGAGTKLTVL |
| 3.44 | 1/3 | 3/9 | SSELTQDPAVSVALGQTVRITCEDKSLRYYYAYWYQQKPGQAPILVIYGKNNRPSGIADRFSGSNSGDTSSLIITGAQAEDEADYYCSSRDSSGFQVFFGAGTKLTVL |
| 4.13 | 3/3 | 3/9 | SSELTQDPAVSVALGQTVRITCEGDSLRYDYDNWYQQKPGQAPILVIYGKNNRPSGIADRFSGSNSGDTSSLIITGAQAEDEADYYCSSRDSSGFQVFFGAGTKLTVL |
| 3.49 | 2/3 | 4/9 | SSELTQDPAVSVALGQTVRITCEGDSLRYYYANWYQQKPGQAPILVIYGKNNNPSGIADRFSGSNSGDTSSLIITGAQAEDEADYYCSRRDSSGVQVFFGAGTKLTVL |
| 3.35 | 1/3 | 1/9 | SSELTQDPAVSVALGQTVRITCEGDSLRYHYKNWYQQKPGQAPILVIYMKNNRPSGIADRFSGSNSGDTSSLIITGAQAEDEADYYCSSRDSSGFQVFFGAGTKLTVL |

From the AlphaSeq antibody data of Engelhart et al. 2022 (doi:10.1038/s41597-022-01779-4), copy in the FLAb collection.